# According to BindingDB's records for doi:10.1016/j.ejmech.2016.08.061 (South China University of Technology, 2017):
# By UniProt entry, the sequences of proteins in these tests, tags left out.
# UniProt P81908, whole entry: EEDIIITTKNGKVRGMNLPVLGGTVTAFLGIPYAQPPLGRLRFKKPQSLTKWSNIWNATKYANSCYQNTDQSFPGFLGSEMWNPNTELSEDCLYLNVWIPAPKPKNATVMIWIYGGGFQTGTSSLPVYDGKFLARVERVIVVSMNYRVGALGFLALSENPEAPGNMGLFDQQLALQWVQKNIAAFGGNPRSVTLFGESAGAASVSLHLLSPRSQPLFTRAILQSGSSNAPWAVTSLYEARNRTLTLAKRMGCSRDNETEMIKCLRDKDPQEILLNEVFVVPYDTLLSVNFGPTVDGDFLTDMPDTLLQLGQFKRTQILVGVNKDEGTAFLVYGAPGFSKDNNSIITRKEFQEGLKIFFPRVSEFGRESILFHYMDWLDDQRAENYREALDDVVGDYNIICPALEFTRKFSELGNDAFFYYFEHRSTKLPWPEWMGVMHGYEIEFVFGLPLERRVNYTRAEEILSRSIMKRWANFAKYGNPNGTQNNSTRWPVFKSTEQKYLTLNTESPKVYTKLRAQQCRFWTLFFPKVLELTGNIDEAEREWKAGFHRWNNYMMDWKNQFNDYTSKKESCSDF
# UniProt P06276, whole entry: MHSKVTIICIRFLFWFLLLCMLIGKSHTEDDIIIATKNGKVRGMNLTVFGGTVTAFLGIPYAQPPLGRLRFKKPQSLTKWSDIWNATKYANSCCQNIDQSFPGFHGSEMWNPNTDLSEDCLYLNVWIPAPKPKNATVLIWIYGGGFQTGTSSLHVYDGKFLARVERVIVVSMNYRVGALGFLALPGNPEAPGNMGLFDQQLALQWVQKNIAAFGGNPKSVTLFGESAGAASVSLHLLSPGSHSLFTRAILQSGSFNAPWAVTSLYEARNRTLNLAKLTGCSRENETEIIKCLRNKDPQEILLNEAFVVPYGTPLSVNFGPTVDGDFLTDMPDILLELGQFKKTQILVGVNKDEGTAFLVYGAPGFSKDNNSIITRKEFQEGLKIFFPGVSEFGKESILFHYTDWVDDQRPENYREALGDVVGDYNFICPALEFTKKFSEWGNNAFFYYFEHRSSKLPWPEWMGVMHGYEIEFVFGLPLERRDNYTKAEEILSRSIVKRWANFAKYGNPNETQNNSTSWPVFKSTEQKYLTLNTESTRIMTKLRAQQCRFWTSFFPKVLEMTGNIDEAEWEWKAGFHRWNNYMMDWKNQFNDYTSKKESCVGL
# Tests used:
# Cholinesterase [1] = target: Cholinesterase (Equus caballus, UniProt P81908); experiment: Irreversible inhibition of equine serum BuChE assessed as second order carbamylation rate constant using S-butyrylthiocholine iodide as substrate preincubated up to 45 mins followed by substrate addition measured after 5 mins; details: read-out: kon (M-1-s-1)
# Outline: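 Equine BChE, pH 8, 37°C, was preincubated for 1, 2, 4, 8, 15, 30 and 45 min with inhibitor at 1×10^-7 to 5×10^-6 M (seven levels). Residual activity was read by Ellman with BTCh and normalised to a water control at each time. kobs came from a one-phase exponential decay fit; k_I1 came from the linear kobs versus concentration relation.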
# Cholinesterase [2] = target: Cholinesterase (Homo sapiens, UniProt P06276); experiment: Irreversible inhibition of human plasma BuChE assessed as second order carbamylation rate constant using S-butyrylthiocholine iodide as substrate preincubated up to 45 mins followed by substrate addition measured after 5 mins; details: read-out: kon (M-1-s-1)
# Outline: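 Diluted human plasma BChE was preincubated for 1–45 min with inhibitor at 5×10^-9, 1×10^-8, 2.5×10^-8 and 5×10^-8 M. Residual Ellman activity with BTCh at pH 8 was normalised to a water control. kobs came from a one-phase exponential fit; k_I1 came from the slope of kobs versus concentration.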
smiles,measurement,setting,value
CN(C)C(=O)Oc1cc(OC(=O)N(C)C)cc(C(O)CNC(C)(C)C)c1 (configuration not stated) [CHEBI:553827],kon,Cholinesterase [1],2400 M⁻¹ s⁻¹
same,kon,Cholinesterase [2],130000 M⁻¹ s⁻¹
